# CycPeptMPDB entries from one study

Data: CycPeptMPDB; original report Kelly et al. 2021, doi:10.1021/jacs.0c06115.

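Conditions beyond the assay type are not listed; see the original paper. Other peptides of the study may be missing here. Peptides that the database sets to -10, its floor, are left out.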

PAMPA measures passive passage through an artificial lipid membrane. P is given in units of 10^-6 cm/s (from log10 values with two decimals); larger means faster passage.

| PAMPA (10^-6 cm/s) | compound |
|---|---|
| 1.4 | CC(=O)N1CCC[C@H]1C(=O)N(C)[C@@H](CC(C)C)C(=O)N[C@@H]1C(=O)N[C@H](CC(C)C)C(=O)N[C@@H](CC(C)C)C(=O)N(C)[C@H](CC(C)C)C(=O)N(C)[C@H](C)C(=O)N[C@H](CC(C)C)C(=O)N2CCC[C@@H]2C(=O)O[C@@H]1C |
| 2.5 | CC(=O)N1CCC[C@@H]1C(=O)N(C)[C@H](CC(C)C)C(=O)N[C@@H]1C(=O)N[C@@H](CC(C)C)C(=O)N[C@H](CC(C)C)C(=O)N(C)[C@@H](CC(C)C)C(=O)N(C)[C@@H](C)C(=O)N[C@H](CC(C)C)C(=O)N2CCC[C@H]2C(=O)O[C@@H]1C |
| 0.04 | CC(=O)N1CCC[C@@H]1C(=O)N(C)[C@H](CC(C)C)C(=O)N[C@@H]1C(=O)N[C@@H](CC(C)C)C(=O)N[C@@H](CC(C)C)C(=O)N[C@H](CC(C)C)C(=O)N[C@@H](C)C(=O)N[C@@H](CC(C)C)C(=O)N2CCC[C@@H]2C(=O)O[C@@H]1C |
| 1.2 | CC(=O)N1CCC[C@H]1C(=O)N(C)[C@@H](CC(C)C)C(=O)N[C@@H]1C(=O)N(C)[C@@H](CC(C)C)C(=O)N(C)[C@H](CC(C)C)C(=O)N(C)[C@H](CC(C)C)C(=O)N(C)[C@@H](C)C(=O)N[C@@H](CC(C)C)C(=O)N2CCC[C@@H]2C(=O)O[C@@H]1C |
| 1.9 | CC(=O)N1CCC[C@@H]1C(=O)N(C)[C@@H](CC(C)C)C(=O)N[C@@H]1C(=O)N[C@H](CC(C)C)C(=O)N[C@@H](CC(C)C)C(=O)N[C@@H](CC(C)C)C(=O)N(C)[C@H](C)C(=O)N[C@@H](CC(C)C)C(=O)N2CCC[C@@H]2C(=O)O[C@@H]1C |
| 0.62 | CC(=O)N1CCC[C@H]1C(=O)N(C)[C@@H](CC(C)C)C(=O)N[C@@H]1C(=O)N[C@H](CC(C)C)C(=O)N(C)[C@H](CC(C)C)C(=O)N(C)[C@@H](CC(C)C)C(=O)N(C)[C@H](C)C(=O)N[C@H](CC(C)C)C(=O)N2CCC[C@@H]2C(=O)O[C@@H]1C |
| 0.098 | CC(=O)N1CCC[C@@H]1C(=O)N(C)[C@@H](CC(C)C)C(=O)N[C@@H]1C(=O)N[C@@H](CC(C)C)C(=O)N[C@H](CC(C)C)C(=O)N[C@H](CC(C)C)C(=O)N[C@@H](C)C(=O)N[C@@H](CC(C)C)C(=O)N2CCC[C@@H]2C(=O)O[C@@H]1C |
| 1.5 | CC(=O)N1CCC[C@H]1C(=O)N(C)[C@H](CC(C)C)C(=O)N[C@@H]1C(=O)N(C)[C@@H](CC(C)C)C(=O)N[C@@H](CC(C)C)C(=O)N[C@H](CC(C)C)C(=O)N[C@H](C)C(=O)N[C@@H](CC(C)C)C(=O)N2CCC[C@H]2C(=O)O[C@@H]1C |
| 5.8 | CC(=O)N1CCC[C@H]1C(=O)N(C)[C@@H](CC(C)C)C(=O)N[C@@H]1C(=O)N(C)[C@H](CC(C)C)C(=O)N[C@H](CC(C)C)C(=O)N(C)[C@H](CC(C)C)C(=O)N(C)[C@H](C)C(=O)N[C@@H](CC(C)C)C(=O)N2CCC[C@H]2C(=O)O[C@@H]1C |
| 5 | CC(=O)N1CCC[C@H]1C(=O)N(C)[C@@H](CC(C)C)C(=O)N[C@@H]1C(=O)N(C)[C@H](CC(C)C)C(=O)N[C@H](CC(C)C)C(=O)N(C)[C@@H](CC(C)C)C(=O)N(C)[C@H](C)C(=O)N[C@@H](CC(C)C)C(=O)N2CCC[C@@H]2C(=O)O[C@@H]1C |
| 0.43 | CC(=O)N1CCC[C@H]1C(=O)N[C@@H]1C(=O)N(C)[C@H](CC(C)C)C(=O)N[C@H](CC(C)C)C(=O)N[C@H](CC(C)C)C(=O)N(C)[C@@H](CC(C)C)C(=O)N(C)[C@H](C)C(=O)N[C@@H](CC(C)C)C(=O)N2CCC[C@@H]2C(=O)O[C@@H]1C |
| 0.79 | CC(=O)N1CCC[C@H]1C(=O)N(C)[C@@H](CC(C)C)C(=O)N[C@@H]1C(=O)N[C@@H](CC(C)C)C(=O)N(C)[C@H](CC(C)C)C(=O)N[C@@H](CC(C)C)C(=O)N(C)[C@H](C)C(=O)N[C@@H](CC(C)C)C(=O)N2CCC[C@H]2C(=O)O[C@@H]1C |
| 4.8 | CC(=O)N1CCC[C@H]1C(=O)N(C)[C@H](CC(C)C)C(=O)N[C@@H]1C(=O)N(C)[C@@H](CC(C)C)C(=O)N(C)[C@@H](CC(C)C)C(=O)N[C@@H](CC(C)C)C(=O)N(C)[C@H](C)C(=O)N[C@@H](CC(C)C)C(=O)N2CCC[C@@H]2C(=O)O[C@@H]1C |
| 1.9 | CC(=O)N1CCC[C@H]1C(=O)N(C)[C@H](CC(C)C)C(=O)N[C@@H]1C(=O)N(C)[C@@H](CC(C)C)C(=O)N[C@@H](CC(C)C)C(=O)N(C)[C@@H](CC(C)C)C(=O)N(C)[C@H](C)C(=O)N[C@H](CC(C)C)C(=O)N2CCC[C@H]2C(=O)O[C@@H]1C |
| 0.29 | CC(=O)N1CCC[C@@H]1C(=O)N(C)[C@@H](CC(C)C)C(=O)N[C@@H]1C(=O)N[C@@H](CC(C)C)C(=O)N[C@@H](CC(C)C)C(=O)N(C)[C@@H](CC(C)C)C(=O)N(C)[C@@H](C)C(=O)N[C@@H](CC(C)C)C(=O)N2CCC[C@@H]2C(=O)O[C@@H]1C |
| 5 | CC(=O)N1CCC[C@@H]1C(=O)N(C)[C@@H](CC(C)C)C(=O)N[C@@H]1C(=O)N(C)[C@@H](CC(C)C)C(=O)N(C)[C@H](CC(C)C)C(=O)N(C)[C@H](CC(C)C)C(=O)N(C)[C@@H](C)C(=O)N[C@H](CC(C)C)C(=O)N2CCC[C@H]2C(=O)O[C@@H]1C |

2 of these entries, quoted again:

| compound | PAMPA (10^-6 cm/s) |
|---|---|
| CC(=O)N1CCC[C@H]1C(=O)N(C)[C@@H](CC(C)C)C(=O)N[C@@H]1C(=O)N[C@H](CC(C)C)C(=O)N[C@@H](CC(C)C)C(=O)N(C)[C@H](CC(C)C)C(=O)N(C)[C@H](C)C(=O)N[C@H](CC(C)C)C(=O)N2CCC[C@@H]2C(=O)O[C@@H]1C | 1.4 |
| CC(=O)N1CCC[C@H]1C(=O)N[C@@H]1C(=O)N(C)[C@H](CC(C)C)C(=O)N[C@H](CC(C)C)C(=O)N[C@H](CC(C)C)C(=O)N(C)[C@@H](CC(C)C)C(=O)N(C)[C@H](C)C(=O)N[C@@H](CC(C)C)C(=O)N2CCC[C@@H]2C(=O)O[C@@H]1C | 0.43 |